Target: T1, biotinylated Aβ42 (human, UniProt P05067 672-713, biotin (position not given))
T1 construct: amyloid-beta 1-42, cut product of the amyloid precursor protein APP; numbers count on: the Aβ peptide; The ThT assay used unbiotinylated recombinant human Aβ 1–42 (rPeptide A-1170–1); also called Aβ 1–42; Aβ1–42; source: bought: rPeptide (A1117–1)
Test: BLI; BLItz instrument; biotinylated Aβ40 or Aβ42 (10 uM) loaded 120 s on High Precision Streptavidin (SAX) biosensors; CRIP1 at 0.25, 0.5, 1, 9.1 mM (so in the source) associated 120 s, dissociation 120 s; Octet kinetics buffer; background subtracted; global fit
Details: both partners purified

Sequences of proteins named here, by UniProt entry; tags and fusion partners are left off. Residues count along the entry.
UniProt P05067, 672-713: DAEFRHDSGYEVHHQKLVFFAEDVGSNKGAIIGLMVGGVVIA

B1: recombinant human CRIP1 (natural protein, UniProt P50238 1-77, looked up)
chain: MPKCPKCNKEVYFAERVTSLGKDWHRPCLKCEKCGKTLTSGGHAEHEGKPYCNHPCYAAMFGPKGFGRGGAESHTFK
notes: CRIP1 (cysteine-rich intestinal protein family), human, recombinant; also called cysteine-rich intestinal protein; purified recombinant human CRIP1 His protein; source: recombinant; bought: Novus Biologicals (NBP2-22979), purified (source told for the ThT assay)
In the case of B1, the Kd is reported as 7.58 µM.

From paper doi:10.1101/2025.10.08.25337413 (medRxiv, 2025)
